Among the data in publication PMC7534336, “New classes of potent heparanase inhibitors from ligand-based virtual screening” (Journal of Enzyme Inhibition and Medicinal Chemistry, 2020) are IC50 values, retold here.

Protein sequences, listed by entry. Tags and fused reporters are not part of them. Chains listed by the source or under a name are the forms on record and can include a tag or linker.
UniProt Q9Y251, with tags, fused parts or gaps limits assumed: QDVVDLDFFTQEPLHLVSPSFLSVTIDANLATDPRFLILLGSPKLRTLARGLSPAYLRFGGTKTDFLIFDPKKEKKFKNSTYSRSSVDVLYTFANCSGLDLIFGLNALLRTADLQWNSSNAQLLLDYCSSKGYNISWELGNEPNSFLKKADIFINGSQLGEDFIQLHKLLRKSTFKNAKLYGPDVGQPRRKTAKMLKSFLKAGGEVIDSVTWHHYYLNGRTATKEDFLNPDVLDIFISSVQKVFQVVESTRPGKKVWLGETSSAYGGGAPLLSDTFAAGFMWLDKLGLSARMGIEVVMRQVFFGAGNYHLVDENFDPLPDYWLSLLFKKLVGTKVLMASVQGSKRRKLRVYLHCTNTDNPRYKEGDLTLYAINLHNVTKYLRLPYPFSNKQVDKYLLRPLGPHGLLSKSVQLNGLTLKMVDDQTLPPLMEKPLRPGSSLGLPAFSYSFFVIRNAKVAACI

This assay concerns the target human GS3 heparanase (Homo sapiens, UniProt Q9Y251). The assay is described as follows: fondaparinux assay of heparanase enzymatic activity (WST-1 colorimetric). The format is biochemical. The note with it: read-out: IC50 (µM) ± SD, heparanase inhibitory activity; fondaparinux assay on human GS3 heparanase; mean of triplicates; tested form: Na salt. On the technique in general: Tetrazolium dyes change colour on reduction, which living cells bring about.

As for `O=C(Nc1ccc2c(O)c(N=Nc3ccccc3)c(S(=O)(=O)O)cc2c1)Nc1ccc2c(O)c(N=Nc3ccc(C(=O)O)cc3)c(S(=O)(=O)O)cc2c1`, the IC50 (in general, the concentration that gives 50% inhibition) worked out at 1.66 µM.
